# Test results published in US12698289B2, “Solid forms of pharmaceutically acceptable salts of (S)-(2-ethyl-5-fluoro-4-hydroxyphenyl)-1H-indazol-3-yl)-4,6-dihydropyrrolo[3,4-d]imidazol-5(1H)-yl)(3-hydroxypyrrolidin-1-yl)methanone as JAK inhibitors” (HENAN MEDINNO PHARMACEUTICAL TECHNOLOGY CO., LTD., priority 2019, dated 2026).
# The chains behind the UniProt entries cited, without tags or fusion partners.
# UniProt O60674, whole entry: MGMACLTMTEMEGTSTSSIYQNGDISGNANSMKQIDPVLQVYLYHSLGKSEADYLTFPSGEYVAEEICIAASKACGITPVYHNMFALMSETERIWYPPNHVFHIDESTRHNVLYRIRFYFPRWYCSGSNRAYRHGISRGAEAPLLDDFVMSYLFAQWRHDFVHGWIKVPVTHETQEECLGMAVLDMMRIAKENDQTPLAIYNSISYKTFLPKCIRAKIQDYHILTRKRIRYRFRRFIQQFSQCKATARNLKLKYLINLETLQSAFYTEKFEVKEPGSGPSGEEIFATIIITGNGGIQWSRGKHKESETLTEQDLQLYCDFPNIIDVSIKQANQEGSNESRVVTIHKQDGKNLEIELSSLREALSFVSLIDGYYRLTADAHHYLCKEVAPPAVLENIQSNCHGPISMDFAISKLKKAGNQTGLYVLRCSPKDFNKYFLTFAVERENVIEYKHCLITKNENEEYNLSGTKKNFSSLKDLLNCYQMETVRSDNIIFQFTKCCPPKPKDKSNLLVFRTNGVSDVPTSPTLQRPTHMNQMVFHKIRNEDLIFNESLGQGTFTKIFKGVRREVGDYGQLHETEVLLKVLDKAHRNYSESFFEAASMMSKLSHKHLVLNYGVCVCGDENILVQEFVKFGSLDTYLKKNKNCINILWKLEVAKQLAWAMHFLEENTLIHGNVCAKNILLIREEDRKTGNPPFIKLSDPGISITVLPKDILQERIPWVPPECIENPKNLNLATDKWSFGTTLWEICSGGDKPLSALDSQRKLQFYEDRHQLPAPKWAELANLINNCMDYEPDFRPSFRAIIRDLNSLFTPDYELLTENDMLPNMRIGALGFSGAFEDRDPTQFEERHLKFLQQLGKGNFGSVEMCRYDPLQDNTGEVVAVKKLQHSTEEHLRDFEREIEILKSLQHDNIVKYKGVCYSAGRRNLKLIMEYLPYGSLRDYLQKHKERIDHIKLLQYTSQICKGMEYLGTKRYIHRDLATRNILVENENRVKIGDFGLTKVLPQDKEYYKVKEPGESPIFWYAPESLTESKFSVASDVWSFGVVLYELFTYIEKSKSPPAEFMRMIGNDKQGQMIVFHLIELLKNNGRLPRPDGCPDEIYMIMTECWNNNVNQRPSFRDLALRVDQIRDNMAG
# UniProt P23458, whole entry: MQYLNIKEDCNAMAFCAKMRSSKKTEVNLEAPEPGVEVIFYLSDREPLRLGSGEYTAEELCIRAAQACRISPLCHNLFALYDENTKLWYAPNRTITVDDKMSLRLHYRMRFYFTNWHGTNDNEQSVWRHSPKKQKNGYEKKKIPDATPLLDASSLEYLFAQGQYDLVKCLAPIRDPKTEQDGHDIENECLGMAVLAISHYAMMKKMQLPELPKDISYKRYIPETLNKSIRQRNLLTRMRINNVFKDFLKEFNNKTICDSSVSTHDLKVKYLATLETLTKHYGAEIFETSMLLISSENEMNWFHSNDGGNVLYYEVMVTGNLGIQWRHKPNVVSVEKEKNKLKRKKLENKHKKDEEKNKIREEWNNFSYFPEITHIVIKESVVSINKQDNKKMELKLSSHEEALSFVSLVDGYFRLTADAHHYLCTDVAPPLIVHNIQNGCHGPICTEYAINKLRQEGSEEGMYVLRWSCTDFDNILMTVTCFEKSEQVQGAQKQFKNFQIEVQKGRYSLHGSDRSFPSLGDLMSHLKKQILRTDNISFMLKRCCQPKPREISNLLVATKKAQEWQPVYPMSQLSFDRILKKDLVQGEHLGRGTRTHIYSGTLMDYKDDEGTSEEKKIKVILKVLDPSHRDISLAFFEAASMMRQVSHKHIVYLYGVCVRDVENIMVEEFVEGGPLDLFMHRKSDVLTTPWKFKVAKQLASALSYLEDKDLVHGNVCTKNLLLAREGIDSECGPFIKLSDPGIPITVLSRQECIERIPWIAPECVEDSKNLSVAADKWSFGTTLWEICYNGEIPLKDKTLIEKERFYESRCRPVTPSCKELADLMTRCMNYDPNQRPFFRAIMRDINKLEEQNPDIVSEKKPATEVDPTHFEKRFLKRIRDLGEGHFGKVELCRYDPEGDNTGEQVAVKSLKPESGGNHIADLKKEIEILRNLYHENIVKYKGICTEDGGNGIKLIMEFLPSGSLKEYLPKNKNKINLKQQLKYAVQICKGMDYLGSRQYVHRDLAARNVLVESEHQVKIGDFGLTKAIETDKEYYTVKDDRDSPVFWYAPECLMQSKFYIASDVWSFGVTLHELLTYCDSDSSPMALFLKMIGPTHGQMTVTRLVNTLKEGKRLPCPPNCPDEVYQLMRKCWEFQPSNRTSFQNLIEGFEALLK
# UniProt P29597, whole entry: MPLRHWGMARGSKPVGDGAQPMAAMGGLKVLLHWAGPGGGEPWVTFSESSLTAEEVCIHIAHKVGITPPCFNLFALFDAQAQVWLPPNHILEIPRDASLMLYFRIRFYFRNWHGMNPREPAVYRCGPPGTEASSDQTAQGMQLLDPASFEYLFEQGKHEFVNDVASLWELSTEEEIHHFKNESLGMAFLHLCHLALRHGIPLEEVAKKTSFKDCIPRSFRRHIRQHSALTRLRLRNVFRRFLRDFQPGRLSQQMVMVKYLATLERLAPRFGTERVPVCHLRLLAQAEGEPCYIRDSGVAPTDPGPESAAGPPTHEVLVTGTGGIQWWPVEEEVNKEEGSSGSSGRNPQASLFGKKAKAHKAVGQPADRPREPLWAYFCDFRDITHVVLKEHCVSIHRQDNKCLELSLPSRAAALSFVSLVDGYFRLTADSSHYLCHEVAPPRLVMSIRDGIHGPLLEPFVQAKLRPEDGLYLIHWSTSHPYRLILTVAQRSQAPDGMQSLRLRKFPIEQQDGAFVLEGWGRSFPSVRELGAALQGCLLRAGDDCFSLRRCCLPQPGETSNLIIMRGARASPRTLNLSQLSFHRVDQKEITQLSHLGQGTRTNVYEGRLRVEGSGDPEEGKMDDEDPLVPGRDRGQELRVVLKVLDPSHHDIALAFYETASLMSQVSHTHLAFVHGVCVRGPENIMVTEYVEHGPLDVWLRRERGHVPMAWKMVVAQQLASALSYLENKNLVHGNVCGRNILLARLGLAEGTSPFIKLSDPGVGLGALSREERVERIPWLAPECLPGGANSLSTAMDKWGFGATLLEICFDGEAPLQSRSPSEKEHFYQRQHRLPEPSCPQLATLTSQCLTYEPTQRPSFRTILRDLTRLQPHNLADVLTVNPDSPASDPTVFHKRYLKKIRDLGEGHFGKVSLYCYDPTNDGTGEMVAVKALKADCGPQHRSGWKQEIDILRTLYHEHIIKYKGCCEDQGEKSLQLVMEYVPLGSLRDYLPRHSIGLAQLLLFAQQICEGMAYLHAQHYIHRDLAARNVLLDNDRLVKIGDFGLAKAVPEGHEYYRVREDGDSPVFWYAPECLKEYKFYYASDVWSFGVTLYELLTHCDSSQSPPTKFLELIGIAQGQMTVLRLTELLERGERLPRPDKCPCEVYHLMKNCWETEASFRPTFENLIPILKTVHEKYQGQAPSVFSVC
# Tests used:
# Conditions in all cases: tested form: methanesulfonate
# JAK2 = JAK2 (Homo sapiens, UniProt O60674); test: JAK2 kinase ADP-Glo assay (Example 6, Tofacitinib reference)
# JAK1 = JAK1 (Homo sapiens, UniProt P23458); test: JAK1 kinase ADP-Glo assay (Example 6, Tofacitinib reference)
# TYK2 = TYK2 (Homo sapiens, UniProt P29597); test: TYK2 kinase ADP-Glo assay (Example 6, Tofacitinib reference)
structure (smiles),measurement,setting,value
"CCc1cc(O)c(F)cc1-c1ccc2c(-c3nc4c([nH]3)CN(C(=O)N3CC[C@H](O)C3)C4)n[nH]c2c1 [Compound of formula (I), (S)-(2-(6-(2-ethyl-5-fluoro-4-hydroxyphenyl)-1H-indazol-3-yl)-4,6-dihydropyrrolo[3,4-d]imidazol-5-(1H)-yl) (3-hydroxy pyrrolidin-1-yl) ketone]",IC50,JAK2,0.3 nM
same,IC50,JAK1,0.12 nM
same,IC50,TYK2,0.18 nM
